## Cyclic peptide permeability, from CycPeptMPDB

Source: CycPeptMPDB (Li et al. 2023), which took these values from Townsend et al. 2020, doi:10.26434/chemrxiv.13335941.v1.

PAMPA measures passive passage through an artificial lipid membrane. Permeability is given as log10 of P in cm/s; higher (less negative) is more permeable.

SMILES	PAMPA (log10 cm/s)
CC(C)C[C@@H]1C(=O)N[C@@H](Cc2ccccc2)CC(=O)N2CCC[C@@H]2C(=O)N[C@H](CC(C)C)C(=O)N[C@@H](Cc2ccccc2)C(=O)N2CCC[C@@H]2C(=O)N(C)[C@H](C)C(=O)N1C	-6.18
CC(C)C[C@@H]1NC(=O)[C@@H](C)N(C)C(=O)[C@H](Cc2ccccc2)NC(=O)[C@H](CC(C)C)N(C)C(=O)[C@@H]2CCCN2C(=O)[C@@H](CC(C)C)NC1=O	-5.02
CC(C)C[C@@H]1NC(=O)[C@@H](C)NC(=O)[C@H](Cc2ccccc2)NC(=O)[C@@H](CC(C)C)NC(=O)[C@H]2CCCN2C(=O)[C@@H](CC(C)C)NC1=O	-6.34
CC(C)C[C@@H]1C(=O)N2CCC[C@H]2C(=O)N(Cc2ccccc2)CC(=O)N[C@@H](Cc2ccccc2)C(=O)N2CCC[C@@H]2C(=O)N[C@H](C)C(=O)N[C@H](CC(C)C)C(=O)N1C	-6.42
CC(C)C[C@@H]1NC(=O)[C@H](C)NC(=O)[C@@H]2CCCN2C(=O)[C@H](Cc2ccccc2)NC(=O)CN(Cc2ccccc2)C(=O)[C@H]2CCCN2C(=O)[C@@H](CC(C)C)NC1=O	-7.12
CC(C)C[C@@H]1C(=O)N2CCC[C@@H]2C(=O)N(Cc2ccccc2)CC(=O)N[C@@H](Cc2ccccc2)C(=O)N2CCC[C@@H]2C(=O)N(C)[C@@H](C)C(=O)N[C@H](CC(C)C)C(=O)N1C	-5.36
CC(C)C[C@@H]1C(=O)N(C)[C@H](CC(C)C)C(=O)N2CCC[C@H]2C(=O)N(C)[C@H](CC(C)C)C(=O)N[C@@H](Cc2ccccc2)C(=O)N2CCC[C@H]2C(=O)N(C)[C@H](C)C(=O)N1C	-5.08
CC(C)C[C@H]1NC(=O)[C@H]2CCCN2C(=O)[C@@H](CC(C)C)NC(=O)CN(Cc2ccccc2)C(=O)[C@@H](C)NC(=O)[C@H](Cc2ccccc2)NC1=O	-6.42
CC(C)C[C@@H]1NC(=O)[C@@H]2CCCN2C(=O)[C@H](CC(C)C)NC(=O)[C@@H](CC(C)C)N(C)C(=O)[C@@H](C)N(C)C(=O)[C@H](Cc2ccccc2)NC1=O	-5.16
CC(C)C[C@H]1NC(=O)[C@H]2CCCN2C(=O)CN(Cc2ccccc2)C(=O)[C@@H](CC(C)C)NC(=O)[C@@H](C)N(C)C(=O)[C@H]2CCCN2C(=O)[C@H](Cc2ccccc2)NC1=O	-6.32
CCCN1CC(=O)N(Cc2ccccc2)CC(=O)N(C)[C@@H](CC(C)C)C(=O)N2CCC[C@@H]2C(=O)N(C)[C@H](CC(C)C)C(=O)N[C@@H](Cc2ccccc2)C(=O)N2CCC[C@H]2C1=O	-5.34
CC(C)C[C@H]1NC(=O)[C@@H](C)NC(=O)[C@H]2CCCN2C(=O)[C@H](Cc2ccccc2)NC(=O)CN(Cc2ccccc2)C(=O)[C@@H]2CCCN2C(=O)CN(Cc2ccccc2)C1=O	-6.54
CC(C)C[C@H]1NC(=O)[C@@H]2CCCN2C(=O)CN(Cc2ccccc2)C(=O)[C@H](CC(C)C)N(C)C(=O)[C@@H](C)NC(=O)[C@H](Cc2ccccc2)NC1=O	-5.79
CC(C)C[C@@H]1C(=O)N2CCC[C@H]2C(=O)N(C)[C@H](CC(C)C)C(=O)N[C@@H](Cc2ccccc2)C(=O)N[C@H](C)C(=O)N(C)[C@H](CC(C)C)C(=O)N1C	-5.20
CC(C)C[C@@H]1C(=O)N(C)[C@@H](CC(C)C)C(=O)N2CCC[C@H]2C(=O)N[C@H](CC(C)C)C(=O)N[C@@H](Cc2ccccc2)C(=O)N2CCC[C@H]2C(=O)N(C)[C@H](C)C(=O)N1C	-6.82
CC(C)C[C@H]1C(=O)N(Cc2ccccc2)CC(=O)N2CCC[C@H]2C(=O)N(C)[C@@H](CC(C)C)C(=O)N[C@@H](Cc2ccccc2)C(=O)N[C@H](C)C(=O)N1C	-5.35
CC(C)C[C@@H]1C(=O)N[C@@H](Cc2ccccc2)C(=O)N2CCC[C@H]2C(=O)N[C@@H](Cc2ccccc2)CC(=O)N(Cc2ccccc2)CC(=O)N[C@H](CC(C)C)C(=O)N2CCC[C@@H]2C(=O)N1C	-5.45
CCCN1CC(=O)N[C@H](CC(C)C)C(=O)N(Cc2ccccc2)CC(=O)N2CCC[C@H]2C(=O)N(Cc2ccccc2)CC(=O)N[C@@H](Cc2ccccc2)C(=O)N2CCC[C@@H]2C1=O	-5.84
CC(C)C[C@@H]1C(=O)N(Cc2ccccc2)CC(=O)N2CCC[C@@H]2C(=O)N(C)[C@@H](CC(C)C)C(=O)N[C@@H](Cc2ccccc2)C(=O)N[C@@H](C)C(=O)N1C	-5.08
CC(C)C[C@@H]1NC(=O)[C@@H]2CCCN2C(=O)CN(Cc2ccccc2)C(=O)[C@H](CC(C)C)N(C)C(=O)C[C@H](Cc2ccccc2)NC(=O)[C@H]2CCCN2C(=O)[C@H](Cc2ccccc2)NC1=O	-5.61
CC(C)C[C@@H]1C(=O)N[C@@H](Cc2ccccc2)C(=O)N2CCC[C@H]2C(=O)N[C@@H](C)C(=O)N(C)[C@@H](CC(C)C)C(=O)N(Cc2ccccc2)CC(=O)N2CCC[C@H]2C(=O)N1C	-5.77
CC(C)C[C@@H]1C(=O)N(C)[C@H](CC(C)C)C(=O)N2CCC[C@H]2C(=O)N(C)[C@H](CC(C)C)C(=O)N[C@@H](Cc2ccccc2)C(=O)N2CCC[C@H]2C(=O)N[C@@H](C)C(=O)N1C	-5.20
CC(C)C[C@@H]1NC(=O)C[C@H](Cc2ccccc2)NC(=O)[C@H](Cc2ccccc2)NC(=O)[C@@H](CC(C)C)NC(=O)[C@@H]2CCCN2C(=O)[C@@H](CC(C)C)N(C)C1=O	-5.33

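Lipid, pH, incubation time, direction and concentration are not recorded in the data file. The list need not hold all peptides of the study. Peptides that the database sets to -10, its floor, are left out.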